Only a part is listed here, and it is no random draw. Some salts and complexes are drawn in separate pieces, as the source files them; their charges need not balance. The source made the active and inactive calls.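 How the source made its calls: active means ratio B-score over 3 SD below the library mean, with starting fluorescence within 5 SD of its mean; inactive means the rest, inconclusive results apart.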

Amino acid sequences for entries named in this document (tags omitted).
UniProt Q9NPC2, whole entry: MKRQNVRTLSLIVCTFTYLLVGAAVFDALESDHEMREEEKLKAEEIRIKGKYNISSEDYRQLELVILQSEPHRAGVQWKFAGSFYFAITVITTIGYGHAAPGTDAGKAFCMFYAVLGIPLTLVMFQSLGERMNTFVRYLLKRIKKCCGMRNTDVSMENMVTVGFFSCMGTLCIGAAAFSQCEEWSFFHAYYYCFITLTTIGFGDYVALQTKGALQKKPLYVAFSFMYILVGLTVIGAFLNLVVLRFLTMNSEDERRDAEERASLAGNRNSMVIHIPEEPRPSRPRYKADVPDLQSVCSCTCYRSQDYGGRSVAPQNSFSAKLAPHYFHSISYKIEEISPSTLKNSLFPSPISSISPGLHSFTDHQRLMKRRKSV

The target in this assay is Potassium channel subfamily K member 9 (Homo sapiens) (UniProt Q9NPC2). The assay is described as follows: KCNK9 potassium channel inhibitors, primary screen, HEK293 cells, thallium flux (AID 488922). Conditions: HEK293 KCNK9, FluxOR thallium flux fluorescence; at 10 µM.
Regarding `COc1ccc2c(c1O)-c1c(O)c(OC)cc3c1[C@H](C2)[N+](C)(C)CC3.O=[N+]([O-])c1cc([N+](=O)[O-])c([O-])c([N+](=O)[O-])c1[O-]`, the compound was classed as inactive. To `CC(=O)Nc1ccc([As](=O)(O)O)c(O)c1` belongs “inactive”. `C[C@@H]1C=CCP(=O)(Oc2ccccc2)O1` (stereo partly specified): the call was inactive. With `C[C@H]1OP(=O)(Oc2ccccc2)C[C@@H]2O[C@@H]21` (stereo partly specified), the outcome was inactive. Take `O=C(OCCN1CCN(CCOCc2ccccc2)CC1)C(O)(c1ccccc1)c1ccccc1`: the outcome was inactive. For `O=C(OC1CN2CCC1CC2)c1ccc([N+](=O)[O-])cc1` (stereo unspecified), the compound was called inactive. To `CC(=O)c1ccc(N2CC2c2ccncc2)cc1` (stereo unspecified) belongs “inactive”; to `CC(C)c1ccc(OP(C)(=O)Nc2ccc(SC(F)(F)F)cc2)cc1` (stereo unspecified), “inactive”; to `CC(C)(C)C(=O)NC(Sc1ccccc1)C(Cl)(Cl)Cl` (stereo unspecified), “inactive”. For `CP(=O)(Nc1ccccc1F)Oc1ccccc1` (stereo unspecified), the result was inactive. As for `CCOc1ccc(C2=NCC(CBr)S2)cc1` (stereo unspecified), the entry is “inactive”.

Turning to `O=P1(Nc2nc3ccc(Cl)cc3s2)COc2ccccc2O1` (stereo unspecified), the compound was classed as inactive. As for `CN(C)C(=O)Oc1noc2ccccc12`, the entry is “inactive”; as for `O=[N+]([O-])c1cc([N+](=O)[O-])c(OC2CCCCC2O)c([N+](=O)[O-])c1` (stereo unspecified), “inactive”; as for `CCCCCOc1ccc(NP(C)(=O)Oc2ccc(Cl)cc2Cl)cc1` (stereo unspecified), “inactive”. For the compound `Cc1ccccc1OP(=O)(Nc1ccccn1)Oc1ccccc1C`, the compound was called inactive. With `CP(=O)(Nc1ccccc1)Oc1ccc(F)cc1` (stereo unspecified), the compound was called inactive. To `CCC(=O)N1C2C3N(C(=O)CC)C1C1N(C(=O)CC)C(C(N1C(=O)CC)N3C(=O)CC)N2C(=O)CC` belongs “inactive”; to `CCN(CC)CCCOC(=O)C(O)(c1ccccc1)C1CCCCC1` (stereo unspecified), “inactive”; to `O=C(OC1CN2CCC1CC2)c1ccccc1` (stereo unspecified), “inactive”. To `Cc1ccc(OP(=O)(Nc2ccccn2)Oc2ccc(C)cc2)cc1` belongs “inactive”; to `CC(=O)NC(SC(=S)N(CC(C)C)CC(C)C)C(Cl)(Cl)Cl` (stereo unspecified), “inactive”; to `COC(=O)c1cc2c(s1)N=C(c1ccccc1)N(C)P2(=O)N1CCOCC1` (stereo unspecified), “inactive”. In the case of `COc1ccc(OP(C)(=O)Nc2ccc(SC(F)(F)F)cc2)cc1` (stereo unspecified), the result was inactive. As for `CCOC(=O)c1ccc(NP(C)(=O)Oc2ccc(F)cc2)cc1` (stereo unspecified), the entry is “inactive”; as for `CCOC(=O)NC(Sc1ccccc1)C(Cl)(Cl)Cl` (stereo unspecified), “inactive”. Take `Cc1ccc(NP(=O)(Oc2cccc(C)c2)Oc2cccc(C)c2)nc1`: the compound was called inactive. To `c1ccc(-c2nn[nH]n2)c(-c2nn[nH]n2)c1` belongs “inactive”; to `O=C(NC1CCS(=O)(=O)C1)NP(=S)(Oc1ccccc1)Oc1ccccc1` (stereo unspecified), “inactive”; to `CCNC(=S)/N=C(\N)N[N+](=O)[O-]`, “inactive”. To `O=C(OC1CN2CCC1CC2)c1cccc(Cl)c1` (stereo unspecified) belongs “inactive”.

The record behind these values is PubChem BioAssay AID488922 (Johns Hopkins Ion Channel Center, 2010).
